{"sequences": {"note": "Sequences of proteins named here, by UniProt entry; tags and fusion partners are left off. Residues count along the entry.", "UniProt P55212, 24-179 limits assumed": "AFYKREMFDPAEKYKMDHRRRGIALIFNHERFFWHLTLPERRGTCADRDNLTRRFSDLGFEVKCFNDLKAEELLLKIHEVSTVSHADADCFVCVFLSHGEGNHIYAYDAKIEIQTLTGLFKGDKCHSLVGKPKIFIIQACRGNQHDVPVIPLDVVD", "UniProt P55212, 194-293 limits assumed": "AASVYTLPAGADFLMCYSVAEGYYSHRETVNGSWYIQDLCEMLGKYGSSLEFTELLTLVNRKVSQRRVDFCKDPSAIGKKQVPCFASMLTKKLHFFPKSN"}, "source": "PubChem BioAssay AID686996", "about": "(Broad Institute, 2013)", "note": "The list shows a part of the results, in another mix than the full data. Active and inactive are the calls of the source.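 The calls were made as follows: active = mean inhibition across replicates at least about 35%, with every replicate also reaching that limit (limit read from the data); inconclusive = only one of the two criteria met; inactive = neither criterion met.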"}
{"target": "Caspase-6 (Homo sapiens) (UniProt P55212)", "assay": "inhibition of CASP6 peptide cleavage – biochemical, VEID-R110 fluorescence, single point, set 2, primary screen (AID 686996);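 also: 0% = median of neutral control wells and 100% = no fluorescence left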", "details": "purified caspase-6, Z-VEID-R110 cleavage fluorescence; at 12.5 µM; hits give high values"}
{"smiles": "O=c1[nH]c2ccccc2n1C1CCN(C(c2ccnc3ccccc23)c2nnnn2C2CCCCC2)CC1", "note": "(stereo not drawn)", "inhibition": "inactive: 1.8%"}
{"smiles": "O=C(NCC1(N2CCCCC2)CCCCC1)c1ccco1", "inhibition": "inactive: 0.898%"}
{"smiles": "CN(C)c1ccc(C(=O)NCC2(N3CCCCC3)CCCCC2)cc1", "inhibition": "inactive: -1.79%"}
{"smiles": "Cn1c(=O)[nH]cc(N(CCCl)CCCl)c1=O", "inhibition": "inactive: 1.32%"}
{"smiles": "Cc1ccccc1NC1(C#N)CCN(Cc2ccccc2)CC1", "inhibition": "inactive: 1.21%"}
{"smiles": "COc1ccc(C(c2nnnn2C2CCCCC2)N2CCC(n3c(=O)[nH]c4ccccc43)CC2)cc1", "note": "(stereo not drawn)", "inhibition": "inactive: 1.28%"}
{"smiles": "CC(C)(C)n1nnnc1C(c1ccnc2ccccc12)N1CCC(n2c(=O)[nH]c3ccccc32)CC1", "note": "(stereo not drawn)", "inhibition": "inactive: 2.48%"}
{"smiles": "CC(C)(C)OC(=O)N1CCC(Nc2ccccc2)CC1", "inhibition": "inactive: -1.12%"}
{"smiles": "O=C(O)C1(Nc2ccccc2)CCN(Cc2ccccc2)CC1", "inhibition": "inactive: -4.16%"}
{"smiles": "NN(c1ccccc1)C1CCN(CCc2ccccc2)CC1", "inhibition": "inactive: -3.86%"}
{"smiles": "O=c1[nH]c2ccccc2n1C1CCN(C(c2cc3ccccc3o2)c2nnnn2C2CCCC2)CC1", "note": "(stereo not drawn)", "inhibition": "inactive: 2.15%"}
{"smiles": "CCCOc1ccc(C(=O)NCC2(N(C)C)CCCCC2)cc1", "inhibition": "inactive: -5.03%"}
{"smiles": "CN1CCC(Nc2ccc(F)c(Cl)c2)CC1", "inhibition": "inactive: -3.23%"}
{"smiles": "CN1CCC(Nc2ccc(Cl)cc2)CC1", "inhibition": "inactive: -9.09%"}
{"smiles": "COc1cccc(C(c2nnnn2C2CCCC2)N2CCC(n3c(=O)[nH]c4ccccc43)CC2)c1OC", "note": "(stereo not drawn)", "inhibition": "inactive: 0.13%"}
{"smiles": "COc1cc(OC)cc(C(=O)NCC2(N3CCOCC3)CCCCC2)c1", "inhibition": "inactive: -0.782%"}
{"smiles": "COc1cccc(C(=O)N(c2cc(C)cc(C)c2)C2CCN(C(=O)OC(C)(C)C)CC2)c1", "inhibition": "inactive: 4.61%"}
{"smiles": "CSc1ccccc1C(=O)NCC1(N2CCCCC2)CCCCC1", "inhibition": "inactive: -4.81%"}
{"smiles": "Cc1cccc(NC2(C#N)CCN(Cc3ccccc3)CC2)c1", "inhibition": "inactive: -2.81%"}
{"smiles": "COc1ccc(C(=O)NCC2(N3CCCCC3)CCCCC2)cc1", "inhibition": "inactive: -3.8%"}
{"smiles": "COc1ccc(C(=O)NCC2(N3CCCCC3)CCCCC2)c(OC)c1OC", "inhibition": "inactive: -3.81%"}
{"smiles": "CC(C)(C)OC(=O)N1CCC(N(C(=O)c2ccccc2)c2ccc(F)cc2)CC1", "inhibition": "inactive: -0.349%"}
{"smiles": "CCC(c1nnnn1C1CCCC1)N1CCC(n2c(=O)[nH]c3ccccc32)CC1", "note": "(stereo not drawn)", "inhibition": "inactive: -2.15%"}
{"smiles": "O=C(NCC1(N2CCCCC2)CCCCC1)c1ccc(=O)[nH]c1", "inhibition": "inactive: -5.1%"}
{"smiles": "CCCCn1nnnc1C(CC)N1CCC(n2c(=O)[nH]c3ccccc32)CC1", "note": "(stereo not drawn)", "inhibition": "inactive: 0.366%"}
{"smiles": "O=C(NCC1(N2CCCCC2)CCCCC1)c1cccs1", "inhibition": "inactive: -118%"}
{"smiles": "CCCCn1nnnc1C(c1cccs1)N1CCC(n2c(=O)[nH]c3ccccc32)CC1", "note": "(stereo not drawn)", "inhibition": "inactive: 3.97%"}
{"smiles": "N#CC1(Nc2ccccc2)CCN(Cc2ccccc2)CC1", "inhibition": "inactive: 3.35%"}
{"smiles": "O=C(NCC1(N2CCCCC2)CCCCC1)c1ccc(Cl)s1", "inhibition": "inactive: -3.62%"}
{"smiles": "O=C(OC1CN2CCC1CC2)C1c2ccccc2Oc2ccccc21", "note": "(stereo not drawn)", "inhibition": "inactive: -8.91%"}
{"smiles": "O=c1[nH]c2ccccc2n1C1CCN(C(c2cc3ccccc3o2)c2nnnn2C2CCCCC2)CC1", "note": "(stereo not drawn)", "inhibition": "inactive: -0.031%"}
{"smiles": "COc1ccc(Cl)cc1C(=O)NCC1(N2CCOCC2)CCCCC1", "inhibition": "inactive: 1.27%"}
{"smiles": "CCOC(=O)N1CCC(Nc2ccc(OC)cc2)CC1", "inhibition": "inactive: 2.27%"}
{"smiles": "CCCCn1nnnc1C(c1ccc(OC)cc1)N1CCC(n2c(=O)[nH]c3ccccc32)CC1", "note": "(stereo not drawn)", "inhibition": "inactive: 3.18%"}
{"smiles": "O=C(NCC1(N2CCCCC2)CCCCC1)c1ccc(Cl)nc1", "inhibition": "inactive: -4.42%"}
{"smiles": "O=c1[nH]c2ccccc2n1C1CCN(C(c2ccccc2OC(F)(F)F)c2nnnn2C2CCCCC2)CC1", "note": "(stereo not drawn)", "inhibition": "inactive: -3.69%"}
{"smiles": "Cc1cc(C)cc(N(C(=O)c2ccccc2)C2CCN(C(=O)OC(C)(C)C)CC2)c1", "inhibition": "inactive: 2.88%"}
{"smiles": "O=P1(N(CCCl)CCCl)SCCCS1", "inhibition": "inactive: -6.23%"}
{"smiles": "CCCCn1nnnc1C(c1cc2ccccc2o1)N1CCC(n2c(=O)[nH]c3ccccc32)CC1", "note": "(stereo not drawn)", "inhibition": "inactive: -2.46%"}
{"smiles": "CCCCOc1ccc(C(=O)NCC2(N3CCOCC3)CCCCC2)cc1", "inhibition": "inactive: -3.6%"}
{"smiles": "O=C(NCC1(N2CCCCC2)CCCCC1)c1ccc(F)cc1", "inhibition": "inactive: -7.1%"}
{"smiles": "CCOC(=O)N1CCC(Nc2ccc(F)cc2)CC1", "inhibition": "inactive: 1.42%"}
{"smiles": "CC(C)(C)n1nnnc1C(c1ccccc1)N1CCC(n2c(=O)[nH]c3ccccc32)CC1", "note": "(stereo not drawn)", "inhibition": "inactive: -1.33%"}
{"smiles": "O=C1CCN(Cc2ccccc2)CC1", "inhibition": "inactive: -3.08%"}
{"smiles": "CCOc1ccc(C)cc1CN(CCCl)CCCl", "inhibition": "inactive: -85.1%"}
{"smiles": "CCOC(=O)N1CCC(Nc2cccc(C)c2)CC1", "inhibition": "inactive: -4.1%"}
{"smiles": "COc1cc(C(=O)NCC2(N(C)C)CCCCC2)ccc1OC(F)F", "inhibition": "inactive: -0.781%"}
{"smiles": "O=c1[nH]c2ccccc2n1C1CCN(C(c2cccc3ccccc23)c2nnnn2C2CCCC2)CC1", "note": "(stereo not drawn)", "inhibition": "inactive: -1.09%"}
{"smiles": "O=c1[nH]c2ccccc2n1C1CCN(C(c2ccccc2)c2nnnn2C2CCCCC2)CC1", "note": "(stereo not drawn)", "inhibition": "inactive: 2.48%"}
{"smiles": "CCN1CCC(Nc2ccc(Cl)cc2)CC1", "inhibition": "inactive: -19.1%"}
{"smiles": "O=c1[nH]c2ccccc2n1C1CCN(C(c2ccccc2OC(F)(F)F)c2nnnn2C2CCCC2)CC1", "note": "(stereo not drawn)", "inhibition": "inactive: 1.37%"}
{"smiles": "CSc1ccc(C(=O)NCC2(N3CCOCC3)CCCCC2)cc1", "inhibition": "inactive: -2.37%"}
{"smiles": "O=C(NCC1(N2CCCCC2)CCCCC1)c1cccc([N+](=O)[O-])c1", "inhibition": "inactive: 5.61%"}
{"smiles": "CC(C)(C)n1nnnc1C(c1ccccc1OC(F)(F)F)N1CCC(n2c(=O)[nH]c3ccccc32)CC1", "note": "(stereo not drawn)", "inhibition": "inactive: 0.634%"}
{"smiles": "O=C(NCC1(N2CCCCC2)CCCCC1)c1ccc(OC(F)F)cc1", "inhibition": "inactive: -1.11%"}
{"smiles": "COc1cc(C(=O)NCC2(N3CCCCC3)CCCCC2)ccc1OC(F)F", "inhibition": "inactive: -18.9%"}
{"smiles": "CN1CCN(CCOC(=O)C(O)(c2ccccc2)c2ccccc2)CC1", "inhibition": "inactive: -0.82%"}
{"smiles": "COc1ccc(NC2CCN(C(=O)OC(C)(C)C)CC2)cc1", "inhibition": "inactive: -0.192%"}
{"smiles": "CC(C)c1ccc(C(=O)NCC2(N3CCOCC3)CCCCC2)cc1", "inhibition": "inactive: -1.32%"}
{"smiles": "CCCCn1nnnc1C(c1cccc2ccccc12)N1CCC(n2c(=O)[nH]c3ccccc32)CC1", "note": "(stereo not drawn)", "inhibition": "inactive: -1.4%"}
{"smiles": "O=C(NCC1(N2CCCCC2)CCCCC1)c1cccc(C(F)(F)F)c1", "inhibition": "inactive: -0.301%"}
{"smiles": "COc1cc(OC)c(C(=O)NCC2(N(C)C)CCCCC2)cc1OC", "inhibition": "inactive: -2.43%"}
{"smiles": "O=C(NCC1(N2CCOCC2)CCCCC1)c1cc(F)c(F)cc1Cl", "inhibition": "inactive: -6.07%"}
{"smiles": "CCC(c1nnnn1C(C)(C)C)N1CCC(n2c(=O)[nH]c3ccccc32)CC1", "note": "(stereo not drawn)", "inhibition": "inactive: 3.55%"}
{"smiles": "CCCCn1nnnc1C(c1ccnc2ccccc12)N1CCC(n2c(=O)[nH]c3ccccc32)CC1", "note": "(stereo not drawn)", "inhibition": "inactive: 4.47%"}
{"smiles": "CC(C)c1ccc(NC2CCN(C(=O)OC(C)(C)C)CC2)cc1", "inhibition": "inactive: 2.17%"}
{"smiles": "COc1ccc(CN(CCCl)CCCl)cc1Cl", "inhibition": "inactive: -46.6%"}
{"smiles": "CN(C)c1cccc(C(=O)NCC2(N3CCCCC3)CCCCC2)c1", "inhibition": "inactive: 1.34%"}
{"smiles": "COc1ccc(C(c2nnnn2C2CCCC2)N2CCC(n3c(=O)[nH]c4ccccc43)CC2)cc1", "note": "(stereo not drawn)", "inhibition": "inactive: -0.978%"}
{"smiles": "Cc1ccc(C(=O)NCC2(N(C)C)CCCCC2)o1", "inhibition": "inactive: -0.48%"}
{"smiles": "CCCOc1ccc(C(=O)NCC2(N(C)C)CCCCC2)cc1OC", "inhibition": "inactive: -1.64%"}
{"smiles": "CN1CCC(Nc2cccc(F)c2)CC1", "inhibition": "inactive: -7.06%"}
{"smiles": "O=C(NCC1(N2CCCCC2)CCCCC1)c1cncc(Br)c1", "inhibition": "inactive: -2%"}
